AlphaSeq binding of Ab-14 light chain variants to a spike HR2 peptide

The target is the same throughout: PDVDLGDISGINAS, from the HR2 region of SARS-CoV-2 spike.

Each scFv is VH, a (GGGGS)3 linker, VL, as in the parent Ab-14, and differs from it in the CDRs of the light chain only.
VH: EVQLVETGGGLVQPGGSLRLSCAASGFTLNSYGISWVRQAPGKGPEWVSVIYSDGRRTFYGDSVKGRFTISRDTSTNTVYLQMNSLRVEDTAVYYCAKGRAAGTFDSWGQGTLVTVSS
VL: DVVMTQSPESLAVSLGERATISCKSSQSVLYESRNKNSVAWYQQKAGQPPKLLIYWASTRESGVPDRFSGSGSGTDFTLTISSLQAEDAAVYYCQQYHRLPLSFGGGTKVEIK

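The parent was found by panning a naive human phage display library on the peptide. The variants were designed computationally from a first round of random CDR variants and then made and measured. Group labels follow the data file (Ctrl: baseline library sampled from a position-specific scoring matrix, with some repeated check sequences; En: ensemble of fine-tuned language models; GP: Gaussian process model; HC: hill climbing; Gen: genetic algorithm; Gibbs: Gibbs sampling; a sequence that several methods proposed may carry one label only). Affinity was read by AlphaSeq, a pooled yeast mating assay with surface-displayed partners. Pairs that bind mate more often; barcode pairs of the diploids are counted by sequencing. The ratio of observed to expected reads was calibrated, replicate by replicate, on BCL2-family standards whose Kd was known from biolayer interferometry. The assay was run in six technical replicates.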

Each variant is given by its three light chain CDRs, as the data file delimits them; those of the parent are KSSQSVLYESRNKNSVA, WASTRES, QQYHRLPLS. Values are log10 of the apparent Kd in nM; lower means stronger binding. Replicates are averaged; those with no signal do not enter the mean. In the paper, a design with two or fewer of six values counts as a poor binder.

{"CDR-L1": "KIGGVTNGLSRNKNSVA", "CDR-L2": "EQSTRES", "CDR-L3": "QQYNRLPLS", "group": "En_HC", "mean log10 Kd (nM)": "-0.07", "seen in": "6 of 6", "empty controls": "0 of 18"}
{"CDR-L1": "KSAASELGESRNKNSVA", "CDR-L2": "SASTRES", "CDR-L3": "QQYHRLPLS", "group": "GP_Gibbs", "mean log10 Kd (nM)": "-0.07", "seen in": "6 of 6", "empty controls": "3 of 18"}
{"CDR-L1": "KSSISQLYESGNKNSVA", "CDR-L2": "NASTRES", "CDR-L3": "QQYHRLPLS", "group": "GP_HC", "mean log10 Kd (nM)": "-0.26", "seen in": "6 of 6", "empty controls": "0 of 18"}
{"CDR-L1": "KIGMTLNTLEHKQNNVA", "CDR-L2": "DLVNREN", "CDR-L3": "QQYFRLPLS", "group": "En_Gen", "mean log10 Kd (nM)": "-0.15", "seen in": "6 of 6", "empty controls": "0 of 18"}
{"CDR-L1": "KLDQSVLYESRNKNSVA", "CDR-L2": "HASTRED", "CDR-L3": "KQYHRLPLS", "group": "GP_HC", "mean log10 Kd (nM)": "1.46", "seen in": "6 of 6", "empty controls": "0 of 18"}
{"CDR-L1": "TISQSTQQESHNKNSVA", "CDR-L2": "DLSVRGS", "CDR-L3": "QQYDRLPLS", "group": "En_HC", "mean log10 Kd (nM)": "0.55", "seen in": "6 of 6", "empty controls": "1 of 18"}
{"CDR-L1": "KLQQSWLYESRNKNSVA", "CDR-L2": "NASQRES", "CDR-L3": "QQYHRLPLS", "group": "GP_Gen", "mean log10 Kd (nM)": "-0.31", "seen in": "6 of 6", "empty controls": "2 of 18"}
{"CDR-L1": "HIQEVDNQVENQNGNVA", "CDR-L2": "DANEYLA", "CDR-L3": "QQYFQLPIS", "group": "En_Gibbs", "mean log10 Kd (nM)": "1.35", "seen in": "5 of 6", "empty controls": "1 of 18"}
{"CDR-L1": "HSSISVEYESRNKNSVA", "CDR-L2": "NASSRES", "CDR-L3": "QQYHRLPLS", "group": "GP_HC", "mean log10 Kd (nM)": "0.52", "seen in": "6 of 6", "empty controls": "1 of 18"}
{"CDR-L1": "TISQVLNTLTKVGNNVA", "CDR-L2": "DLAEREQ", "CDR-L3": "QQYFRLPLS", "group": "En_Gen", "mean log10 Kd (nM)": "1.12", "seen in": "6 of 6", "empty controls": "0 of 18"}
{"CDR-L1": "KLAQSQLYESRNKNSVA", "CDR-L2": "NASTRES", "CDR-L3": "QQYHRLPLS", "group": "GP_Gen", "mean log10 Kd (nM)": "0.87", "seen in": "6 of 6", "empty controls": "0 of 18"}
{"CDR-L1": "KLQQSVLYGSRNKNSVA", "CDR-L2": "NASTRES", "CDR-L3": "QQYHRLPLS", "group": "GP_Gen", "mean log10 Kd (nM)": "-0.20", "seen in": "6 of 6", "empty controls": "2 of 18"}
{"CDR-L1": "SLFFHDDQLQEESNNIA", "CDR-L2": "HASLRSV", "CDR-L3": "QQYMHLPLV", "group": "En_Gibbs", "mean log10 Kd (nM)": "0.76", "seen in": "6 of 6", "empty controls": "2 of 18"}
{"CDR-L1": "KIGMTLNQLMHGKNNVA", "CDR-L2": "DLVMREK", "CDR-L3": "QQYHRLPLS", "group": "En_Gen", "mean log10 Kd (nM)": "0.43", "seen in": "6 of 6", "empty controls": "2 of 18"}
{"CDR-L1": "KLSQSCLYESRNKNSVA", "CDR-L2": "NASTRMS", "CDR-L3": "QQYHRLPLS", "group": "GP_Gen", "mean log10 Kd (nM)": "-0.03", "seen in": "6 of 6", "empty controls": "1 of 18"}
{"CDR-L1": "KIMQQLNYEQFNVSNVA", "CDR-L2": "GQETRER", "CDR-L3": "QSYHRLPLS", "group": "En_HC", "mean log10 Kd (nM)": "1.96", "seen in": "6 of 6", "empty controls": "2 of 18"}
{"CDR-L1": "KVSQSTEYESRMKNSVA", "CDR-L2": "NASYREQ", "CDR-L3": "QQYHRLPLS", "group": "GP_Gibbs", "mean log10 Kd (nM)": "-0.11", "seen in": "6 of 6", "empty controls": "1 of 18"}
{"CDR-L1": "KSEQSVLNESRNKNSVA", "CDR-L2": "WASTRES", "CDR-L3": "EQYHRLPLS", "group": "Ctrl", "mean log10 Kd (nM)": "2.14", "seen in": "5 of 6", "empty controls": "0 of 18"}

The last 2 entries again:

| CDR-L1 | CDR-L2 | CDR-L3 | group | mean log10 Kd (nM) | seen in | empty controls |
|---|---|---|---|---|---|---|
| KVSQSTEYESRMKNSVA | NASYREQ | QQYHRLPLS | GP_Gibbs | -0.11 | 6 of 6 | 1 of 18 |
| KSEQSVLNESRNKNSVA | WASTRES | EQYHRLPLS | Ctrl | 2.14 | 5 of 6 | 0 of 18 |

Nonspecific signal, from three strains lacking the peptide, appeared in 4% of pairings of all light chain designs, centred on 2.64 (5% of these signals below 1.59); values are not corrected for it. Also given: how often the same scFv was detected with the empty control strains. Values of this round are not directly comparable with the first-round values of the same sequences. Of ten entries with the parent sequence, four were seen in most replicates (averages 0.34 to 2.37), three in one and three in none, so single entries are noisy.

Reference: Li et al. 2023, doi:10.1038/s41467-023-39022-2. File: FLAb, binding data.